Measured values as given in article doi:10.1101/2025.08.13.670122v1 (bioRxiv, 2025).

Protein sequences, listed by entry. Tags and fused reporters are not part of them.
UniProt P25095, whole entry: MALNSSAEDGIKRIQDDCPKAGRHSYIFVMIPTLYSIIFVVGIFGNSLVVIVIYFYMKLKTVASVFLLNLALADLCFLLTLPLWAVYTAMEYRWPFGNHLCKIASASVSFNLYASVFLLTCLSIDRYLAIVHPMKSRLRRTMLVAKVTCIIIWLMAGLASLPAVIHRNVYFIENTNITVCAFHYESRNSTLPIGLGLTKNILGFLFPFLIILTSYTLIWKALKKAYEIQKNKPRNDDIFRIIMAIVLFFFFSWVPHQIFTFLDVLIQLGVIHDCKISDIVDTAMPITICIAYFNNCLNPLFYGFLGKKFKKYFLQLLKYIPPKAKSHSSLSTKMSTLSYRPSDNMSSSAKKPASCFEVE

Key:
Type in all cases: cell-based
endogenous AT1R [1] = target: T1, endogenous AT1R (Rattus norvegicus, UniProt P25095); test: PKC BRET sensor in rat primary VSMC with endogenous AT1R; conditions: for 12 and TRV027 response at 10 μM
T1 construct: expressing low levels of endogenous AT1R; endogenous in cells; host or cells: rat primary VSMC, passages 13-15
Excerpt: (§1) We next assessed the analogs’ ability to engage Gαq by assessing either the PKC or Rho responses in rat primary vascular smooth muscle cell (VSMC) culture, expressing low levels of endogenous AT1R (between 25–50 fmol/mg) (Figure 4, Table 6).
(§2) The coding regions of the PKC-c1b sensor, PKN-RBD-RlucII, and rGFPcaax were PCR-amplified and subcloned into the KpnI/XhoI sites of the pENTR3C vector (Invitrogen), respectively. These were then transferred into the adenoviral expression vector pAd/CMV/V5-DEST (Invitrogen), via gateway cloning (pAD-CMV-PKC-c1b, pAD-CMV-PKN-RBD-RLucII, and pAD-CMV-rGFPcaax). Viruses containing the sensor codes were generated following a previously outlined process.[49] […] Viral titers were determined by serial dilution of adenovirus stock and subsequent infection of HEK293A cells in 96-well plates. 36 h after infection, cells were stained using an anti-hexon antibody (ab8249; Abcam), and hexon-expressing cells were tallied via fluorescence microscopy. […]
(§3) On the day of the experiment, each well was washed with 80 µL of Tyrode’s buffer (140 mM NaCl, 2.7 mM KCl, 1 mM CaCl2, 12 mM NaHCO3, 5.6 mM D-glucose, 0.5 mM MgCl2, 0.37 mM NaH2PO4, 25 mM Hepes (pH 7.4)). […] Cells were then stimulated with increasing doses of the indicated ligand, and BRET signals were measured using a Tristar2 (Berthold) microplate reader 10 min later. […]

AT1R [2] = target: T2, AT1R (Homo sapiens, UniProt P30556); test: Gαq activation BRET (GABY sensor) in HEK293 cells expressing AT1R; set-up: expressed in transfected cells; host or cells: HEK293 cells, transient PEI transfection; conditions: response of the ligand at 10 μM, normalised to AngII
Excerpt: (§4) We utilized a clonal cell line HEK293, referred to hereafter as HEK293 cells, which has been previously described.[7],[8] As a gracious gift from A. Inoue (Tohoku University, Sendai, Miyagi, Japan), CRISPR Gαq/11 and Gα12/13 knockout cell lines (ΔGq/11 and ΔG12/13, respectively), were derived as previously explained.[48] In brief, a CRISPR-Cas9 system was used to target either GNAQ and GNA11 or GNA12 and GNA13 genes in HEK293T cells simultaneously to generate the Gαq/11 and Gα12/13 knockout cell lines. For the production of adenovirus, we utilized HEK293A cells. All cells were grown in DMEM supplemented with 10% FBS and Penicillin-Streptomycin-L-Glutamine (10000 IU penicillin, 10000 µg/mL Streptomycin, 200 mM L-Glutamine) at 37°C in T175 flasks under a 5% CO2 humidified chamber. Periodic testing was carried out for mycoplasma contamination (ABM™, Mycoplasma PCR Detection kit). […]
(§5) On the day of the experiment, each well was washed with 80 µL of Tyrode’s buffer (140 mM NaCl, 2.7 mM KCl, 1 mM CaCl2, 12 mM NaHCO3, 5.6 mM D-glucose, 0.5 mM MgCl2, 0.37 mM NaH2PO4, 25 mM Hepes (pH 7.4)). […] Cells were then stimulated with increasing doses of the indicated ligand, and BRET signals were measured using a Tristar2 (Berthold) microplate reader 10 min later. […] BRET signals were then measured using a Synergy2 (BioTek) microplate reader. […]

AT1R [3] = target: T2, AT1R; test: PKC BRET sensor in HEK293 cells expressing AT1R; set-up: expressed in transfected cells; host or cells: HEK293 cells, transient PEI transfection; conditions: response at 10 μM, normalised to AngII
Excerpt: as §4, §5

endogenous AT1R [4] = target: T1, endogenous AT1R; test: Rho BRET sensor in rat primary VSMC with endogenous AT1R; conditions: for 12 and TRV027 response at 10 μM
Excerpt: as §1, §2, §3

AT1R [5] = target: T2, AT1R; test: Rho BRET sensor (PKN-RBD-RlucII/rGFP-CAAX) in ΔG12/13 HEK293 cells expressing AT1R; set-up: expressed in transfected cells; host or cells: HEK293 cells, transient PEI transfection; conditions: ΔG12/13 HEK293/AT1R, response at 10 μM, normalised to AngII
Excerpt: as §4, §5

Emax PKC in VSMCs (% AngII) (endogenous AT1R [1]): 1 % AngII | Emax Gαq (% AngII) (AT1R [2]): 2 % AngII | Emax PKC (% AngII) (AT1R [3]): 3 % AngII | Emax Rho in VSMCs (% AngII) (endogenous AT1R [4]): 3 % AngII | Emax Rho Gαq/11 (% AngII) (AT1R [5]): 13 % AngII
Compound: CC[C@H](C)[C@H](NC(=O)[C@H](Cc1ccc(O)cc1)NC(=O)[C@@H](NC(=O)[C@H](CCCNC(=N)N)NC(=O)CNC)C(C)C)C(=O)N[C@@H](Cc1c[nH]cn1)C(=O)N1CCC[C@H]1C(=O)N[C@H](C)C(=O)O [TRV027, reference compound]
